# Measurements as given in PubChem BioAssay (NCI).
# Values joined by “and” are separate entries in the source; they are usually repeats but may differ in a detail not shown here. Identical values can stand only once. Only a part is listed here, and it is no random draw.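 Assay: single dose, 48 h. Readout: percent growth (0 = no net growth; negative = cell death). Active: <10.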 Active and inactive are the calls of the source.
# Tested on: HCC-2998 colon
# Assay: NCI-60 one-dose screen, 48 h (100 = growth as untreated, 0 = no growth, -100 = all killed)
# Settings: 10 µM unless noted
row,Structure (SMILES),growth
1,CC1CCNP(=O)(N(CCCl)CCCl)O1 (centres undefined),inactive: 115%
2,CCN(CCCl)CC1OC(O)C(O)C1O (centres undefined),inactive: 115%
3,CN(CCCl)/N=N/c1nc2nc[nH]c(=O)c2[nH]1,inactive: 95.3%
4,Nc1ccc(N(CCCl)CCCl)cc1,inactive: 86%
5,c1cc(-c2nn[nH]n2)ccc1-c1nn[nH]n1,inactive: 99.6%
6,CCCC1OP(N)(=O)OCC1CC (centres undefined),inactive: 109%
7,CCOP(=S)(OCC)OCC,inactive: 106%
8,CCOP(=S)(OCC)SCCCl,inactive: 96.7%
9,CN(C)P1(Cl)=NP(Cl)(N(C)C)=NP(Cl)(N(C)C)=N1 (centres undefined),inactive: 106%
10,Nc1ccc(CCCCOc2ccccc2)cc1,inactive: 98.5%
11,O=[N+]([O-])c1cccc(Oc2ccc([N+](=O)[O-])cc2[N+](=O)[O-])c1,inactive: 50.7%
12,CCN(CC)[P+](c1ccc(OC)cc1OC)(N(CC)CC)N(CC)CC,inactive: 43.2%
13,O=C(Nc1ccc([N+](=O)[O-])cc1)N(CCBr)CCBr,inactive: 97.1%
14,O=P1(N(CCCl)CCCl)Nc2ccccc2N1,inactive: 111%
15,ClCCNCc1ccccc1,inactive: 111%
16,O=C(O)/C=C\c1cccc(N(CCCl)CCCl)c1,inactive: 107%
17,O=C(O[C@H]1CN2CCC1CC2)C1NCc2ccccc2[C@@H]1c1ccccc1 (some centres undefined),inactive: 109%
18,CC(=O)Nc1ccc([As](=O)(O)O)c(O)c1,inactive: 106%
19,ClCCN1CCNCC1,inactive: 109%

row,Structure (SMILES),growth
1,Cc1cc([N+](=O)[O-])cc([N+](=O)[O-])c1O,inactive: 104%
2,O=C(OC1CN2CCC1CC2)c1ccccc1 (centres undefined),inactive: 103%
3,O=C(c1ccc([N+](=O)[O-])cc1)N(CCCl)CCCl,inactive: 112%
4,CCCCCCCCCCNP(=S)(Cl)Cl,inactive: 110%
5,COc1cc([N+](=O)[O-])c(Nc2ccc(Cl)cc2[N+](=O)[O-])c([N+](=O)[O-])c1,inactive: 75.4%
6,O=[As]c1ccc(S(=O)(=O)Nc2ccccc2)cc1 (centres undefined),inactive: 79.2%
7,Cc1ccc(S(=O)(=O)CN(CCCl)CCCl)cc1,inactive: 103%
8,CCCN(CCCl)C1c2ccccc2-c2ccccc21,inactive: 102%
9,CC(Cl)CN(CC(C)Cl)C(=O)c1ccccc1 (centres undefined),inactive: 100%
10,CC(Cl)CN(CC(C)Cl)C(=O)OCC(N)C(=O)O (centres undefined),inactive: 113%
11,C[As](=O)(O)c1cccc(C(=O)O)c1,inactive: 98.2%
12,Cc1ccc(S(=O)(=O)N(CCCN)CCCc2c(C)nc(N)[nH]c2=O)cc1,inactive: 117%
13,Cn1c(COc2ccc([N+](=O)[O-])cc2[N+](=O)[O-])cnc1[N+](=O)[O-],inactive: 95.2%
14,O=[N+]([O-])c1ccc(CCCCCCc2ccc([N+](=O)[O-])cc2[N+](=O)[O-])c([N+](=O)[O-])c1,inactive: 102%
15,CCSC(O)C(Cl)(Cl)Cl (centres undefined),inactive: 114%
16,O=[N+]([O-])c1cc(Cl)cc([N+](=O)[O-])c1O,inactive: 98.7%
17,OP1OCCO1,inactive: 119%
18,N#CC(C#N)=C(C#N)N(CCCl)CCCl,inactive: 100%
19,CC[C@H](C)[C@@H]1NC(=O)/C(=C(\C)O)C1=O,inactive: 123%

# Tested on: KM12 colon
# Assay: as above
# Settings: 10 µM unless noted
row,Structure (SMILES),growth
1,CC1CCNP(=O)(N(CCCl)CCCl)O1 (centres undefined),inactive: 94.9%
2,CCN(CCCl)CC1OC(O)C(O)C1O (centres undefined),inactive: 114%
3,CN(CCCl)/N=N/c1nc2nc[nH]c(=O)c2[nH]1,inactive: 102%
4,Nc1ccc(N(CCCl)CCCl)cc1,inactive: 83.1%
5,c1cc(-c2nn[nH]n2)ccc1-c1nn[nH]n1,inactive: 103%
6,CCCC1OP(N)(=O)OCC1CC (centres undefined),inactive: 109% and inactive: 96.4%
7,CCOP(=S)(OCC)OCC,inactive: 101%
8,CCOP(=S)(OCC)SCCCl,inactive: 104%
9,CN(C)P1(Cl)=NP(Cl)(N(C)C)=NP(Cl)(N(C)C)=N1 (centres undefined),inactive: 104%
10,Nc1ccc(CCCCOc2ccccc2)cc1,inactive: 85.9%
11,O=[N+]([O-])c1cccc(Oc2ccc([N+](=O)[O-])cc2[N+](=O)[O-])c1,active: 0.158%
12,O=C(Nc1ccc([N+](=O)[O-])cc1)N(CCBr)CCBr,inactive: 103%
13,O=P1(N(CCCl)CCCl)Nc2ccccc2N1,inactive: 115%
14,ClCCNCc1ccccc1,inactive: 102%
15,O=C(O)/C=C\c1cccc(N(CCCl)CCCl)c1,inactive: 120%
16,O=C(O[C@H]1CN2CCC1CC2)C1NCc2ccccc2[C@@H]1c1ccccc1 (some centres undefined),inactive: 103%
17,CC(=O)Nc1ccc([As](=O)(O)O)c(O)c1,inactive: 106%
18,ClCCN1CCNCC1,inactive: 107%

row,Structure (SMILES),growth
1,Cc1cc([N+](=O)[O-])cc([N+](=O)[O-])c1O,inactive: 105%
2,O=C(OC1CN2CCC1CC2)c1ccccc1 (centres undefined),inactive: 112%
3,CCCCCCCCCCNP(=S)(Cl)Cl,inactive: 103%
4,COc1cc([N+](=O)[O-])c(Nc2ccc(Cl)cc2[N+](=O)[O-])c([N+](=O)[O-])c1,inactive: 84.8%
5,O=[As]c1ccc(S(=O)(=O)Nc2ccccc2)cc1 (centres undefined),inactive: 96.1%
6,Cc1ccc(S(=O)(=O)CN(CCCl)CCCl)cc1,inactive: 108%
7,CCCN(CCCl)C1c2ccccc2-c2ccccc21,inactive: 103%
8,CC(Cl)CN(CC(C)Cl)C(=O)c1ccccc1 (centres undefined),inactive: 99.3%
9,CC(Cl)CN(CC(C)Cl)C(=O)OCC(N)C(=O)O (centres undefined),inactive: 110% and inactive: 115%
10,C[As](=O)(O)c1cccc(C(=O)O)c1,inactive: 118%
11,Cc1ccc(S(=O)(=O)N(CCCN)CCCc2c(C)nc(N)[nH]c2=O)cc1,inactive: 113%
12,Cn1c(COc2ccc([N+](=O)[O-])cc2[N+](=O)[O-])cnc1[N+](=O)[O-],inactive: 104%
13,O=[N+]([O-])c1ccc(CCCCCCc2ccc([N+](=O)[O-])cc2[N+](=O)[O-])c([N+](=O)[O-])c1,inactive: 90%
14,CCSC(O)C(Cl)(Cl)Cl (centres undefined),inactive: 106%
15,O=[N+]([O-])c1cc(Cl)cc([N+](=O)[O-])c1O,inactive: 111%
16,OP1OCCO1,inactive: 112%
17,N#CC(C#N)=C(C#N)N(CCCl)CCCl,inactive: 96.5%
18,CC[C@H](C)[C@@H]1NC(=O)/C(=C(\C)O)C1=O,inactive: 94.9%
